The record followed here is PubChem BioAssay AID686970 (National Center for Advancing Translational Sciences (NCATS), 2013).

The entries are a selection whose mix differs from that of the whole data set. Records with an inconclusive call do not appear. A call without a number means that no potency is given here. Active and inactive are the calls of the source. Calls follow the shape of the dose curve; as a rule, active = well fitted cell-killing curve with a large enough effect; inconclusive = small, poorly fitted or top-dose-only effect, or effect the other way; inactive = flat fitted curve, though single readings scatter.

The test can be described thus: qHTS for induction of synthetic lethality in tumor cells producing 2HG: qHTS for the HT-1080-NT fibrosarcoma cell line.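 Also: NT is the 2HG producing partner of a matched IDH1 knockdown line; nearly all actives have a fitted effect of over 55% in size.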 The conditions noted are these: HT-1080-NT fibrosarcoma viability, CellTiter-Glo ATP luminescence, 48 h; series mostly up to 46.1 µM. Background: In qHTS, concentration-response curves come from the screen itself.
Take `COC(=O)C1(C)COP(=O)(Nc2ccccc2)OC1` (configuration not stated): the Potency entry was “inactive”.

Turning to `O=C(O)CNc1ccc([As](=O)(O)O)cc1`, the Potency entry is “inactive”.

Regarding `CC(C)(C)C(=O)NC(Sc1ccncn1)C(Cl)(Cl)Cl` (configuration not stated), the Potency entry is “inactive”.

Regarding `O=[N+]([O-])c1ncn(CCn2ncnc2[N+](=O)[O-])n1`, the Potency result is “inactive”.

For `O=C(Nc1cc([As](=O)(O)O)ccc1O)c1ccccc1`, the Potency entry is “inactive”.

`O=P1(N(CCCl)CCCl)OCCCS1` (configuration not stated): the Potency result was “inactive”.

Regarding `CC(C)=N/N=C(\N)N[N+](=O)[O-]`, the Potency entry was “inactive”.

Take `CC(C)c1nc(Nc2ccccc2)n(P(=O)(N(C)C)N(C)C)n1`: the Potency result was “inactive”.

For `CN(C)C(=O)OCCc1n(C)cc[n+]1C`, the Potency result was “inactive”.

`c1cc(-c2nn[nH]n2)ccc1-c1nn[nH]n1`: the Potency entry is “inactive”.

As for `CC1CCN(C(=O)Oc2c(Cl)cc(Cl)c3cccnc23)CC1`, the Potency result is “inactive”.

Regarding `Nc1ccc([As](=O)(O)c2ccc(N)cc2)cc1`, the Potency result was “inactive”.

In the case of `CCN(/C(=N/P(=O)(N1CCOCC1)N1CCOCC1)N1CCOCC1)c1ccc(OC)cc1`, the Potency entry is “inactive”.

For the molecule `O=[N+]([O-])c1cccc2n[nH]nc12`, the Potency result was “inactive”.

As for `CC(=O)N1C2C3N(C(C)=O)C1C1N(C(C)=O)C(C(N1C(C)=O)N3C(C)=O)N2C(C)=O`, the Potency entry is “inactive”.

On to `Cc1ccc(NP(=O)(Oc2ccccc2)Oc2ccccc2)nc1`, for which the Potency entry is “inactive”.

`CCc1nc2c(n1)c1c(non1O)c1c2no[n+]1[O-]`: the Potency entry is “inactive”.

`COc1ccc(C2=NCC(CBr)S2)cc1` (configuration not stated): the Potency entry was “inactive”.

With `CC(C)CC(=O)NC(Sc1ccc(Cl)cc1)C(Cl)(Cl)Cl` (configuration not stated), the Potency result is “inactive”.

As to `Nc1cc(N)c2nonc2c1[N+](=O)[O-]`, the Potency entry is “inactive”.

Take `Oc1ccccc1CNc1ccccn1`: the Potency result was “inactive”.

As to `O=C(NC(Sc1ccncn1)C(Cl)(Cl)Cl)c1ccccc1` (configuration not stated), the Potency entry was “inactive”.

`COc1ccccc1OP(=O)(Nc1ccc(C)cn1)Oc1ccccc1OC`: the Potency result was “inactive”.

In the case of `Cc1ccc(OP(=O)(Nc2nccs2)Oc2ccc(C)cc2)cc1`, the Potency result was “inactive”.

As to `Clc1ccc(Cl)c(NC2=NCC(CBr)S2)c1` (configuration not stated), the Potency entry is “inactive”.

Turning to `CN1CCCC(OC(=O)C(c2ccccc2)c2ccccc2)C1` (configuration not stated), the Potency result is “inactive”.

Consider `NC(=O)c1cc([N+](=O)[O-])cc([N+](=O)[O-])c1N`, for which the Potency entry is “inactive”.

Regarding `Cc1ccc(N/C(=N/P(=O)(N2CCOCC2)N2CCOCC2)N2CCOCC2)cc1`, the Potency result is “inactive”.

With `CCN(N=Nc1nonc1N)c1nonc1N`, the Potency entry was “inactive”.

Take `Nc1cccc2ccc([As](=O)(O)O)cc12`: the Potency result is “inactive”.

`CCOP(=O)(Nc1ccccc1)OCC`: the Potency entry is “inactive”.

Consider `Cc1cc(SC(NC(=O)c2ccc(F)cc2)C(Cl)(Cl)Cl)ncn1` (configuration not stated), for which the Potency result was “inactive”.

Consider `Cc1ccc(NP(=O)(Oc2ccccc2F)Oc2ccccc2F)nc1`, for which the Potency result was “inactive”.

Regarding `O=C(O)c1ccccc1[As](=O)(O)O`, the Potency entry was “inactive”.

With `CC(=O)Nc1ccc([As](=O)(O)O)cc1`, the Potency result was “inactive”.

Consider `CCCC1OP(N)(=O)OCC1CC` (configuration not stated), for which the Potency result was “inactive”.

`CN(C)P(=O)(N(C)C)n1c(Nc2ccccc2)nnc1-c1ccccc1`: the Potency result was “inactive”.
